Experimental data published in patent US5010106A, “Method of sterilizing anthers of plants” (dated 1991).

Assays:
animals = test: Toxicity in experiments on animals
[1] = tested on: spring wheat of Botanicheskaya 4 variety; test: Chemical sterilization of anthers, field test, spring wheat (isolated ears / open pollination); conditions: Table 3, spring wheat Botanicheskaya 4, V-th stage, 1% aqueous emulsion, 6 kg/ha; for Number of grains in ear under isolator: control 28.9; for Number of grains in ear in open pollination: control 30.9; for Percentage of grain setting in open pollination: control = 100%
[2] = tested on: spring wheat of Moskovskaya 35 variety; test: as above; conditions: Table 2, spring wheat Moskovskaya 35, VI-th stage, 1% aqueous emulsion, 8 kg/ha; for Number of grains in ear under isolator: control 29.4; for Number of grains in ear in open pollination: control 31.2; for Percentage of grain setting in open pollination: control = 100%
[3] = tested on: tetraploid rye of Ukrainskaya tetra variety; test: Chemical sterilization of anthers, field test, tetraploid rye (isolated ears / open pollination); conditions: Table 5, 1% aqueous emulsion, 8 kg/ha; for Number of grains in ear under isolator: control 28.0 (Examples 24, 25), 36.1 (Examples 26, 27); for Number of grains in ear in open pollination: control 36.8 (Examples 24, 25), 40.2 (Examples 26, 27); for Percentage of grain setting in open pollination: control = 100%
sunflower of BK-119 line = test: Chemical sterilization of sunflower pollen; conditions: Table 13, V-th stage, 0.2% aqueous emulsion, 1.2 kg/ha; for Number of sterile plants: control 0.0; for Oil content of achenes: control 51.0; for Mass of 1,000 achenes: control 60.0; for Percentage of setting of achenes pollination with the pollen mixture under isolator: control 72.6; for Percentage of setting in open pollination: control 85.0; for Germination rate of achenes: control 100.0
[4] = tested on: sunflower of Peredovik variety; test: Chemical sterilization of sunflower pollen; conditions: Table 13, V-th stage, 0.2% aqueous emulsion, 1.2 kg/ha; for Number of sterile plants: control 0.0; for Oil content of achenes: control 54.7; for Mass of 1,000 achenes: control 84.0; for Percentage of setting in open pollination / Percentage of setting of achenes pollination with the pollen mixture under isolator: control 85.0; for Germination rate of achenes: control 100.0
[5] = tested on: triticale of Amphidiploid 206 variety; test: Chemical sterilization of anthers, field test, triticale (isolated ears / open pollination); conditions: Table 8, triticale Amphidiploid 206, VI-th stage, 2% aqueous emulsion, 12 kg/ha; for Number of grains in ear under isolator: control 23.4; for Number of grains in ear in open pollination: control 25.2; for Percentage of grain setting in open pollination: control = 100%
[6] = tested on: triticale of PRAG-109 variety; test: as above; conditions: Table 7, triticale PRAG-109, V-th stage, 2% aqueous emulsion, 12 kg/ha; for Number of grains in ear under isolator: control 41.3; for Number of grains in ear in open pollination: control 45.8; for Percentage of grain setting in open pollination: control = 100%
[7] = tested on: millet of Mironovskoye 94 variety; test: Chemical sterilization of anthers, field test, millet (isolated panicles / open pollination); conditions: Table 9, millet Mironovskoye 94, V-th stage, 1% aqueous emulsion, 10 kg/ha; for Number of grains in panicle under isolator: control 124.9
[8] = tested on: diploid rye of Kharkovskaya 55 variety; test: Chemical sterilization of anthers, field test, diploid rye (isolated ears / open pollination); conditions: Table 6, diploid rye Kharkovskaya 55, 1% aqueous emulsion, 6 kg/ha; for Number of grains in ear under isolator: control 31.5; for Number of grains in ear in open pollination: control 39.4; for Percentage of grain setting in open pollination: control = 100%
[9] = tested on: winter wheat of Mironovskaya 808 variety; test: Chemical sterilization of anthers, field test, winter wheat (isolated ears / open pollination); conditions: Table 1, winter wheat Mironovskaya 808, V-th stage, 2% aqueous emulsion, 12 kg/ha; for Number of grains in ear under isolator: control 40.6; for Number of grains in ear in open pollination: control 42.6; for Percentage of setting of seeds in open pollination: control = 100%

## CC1=CCC2CC1C2(C)C (stereo not shown)
animals
  LD50: 3,700 mg/kg
[1]
  Percentage of sterility: 100.0%
  Number of grains in ear under isolator: 0.0
  Number of grains in ear in open pollination: 29.2
  Percentage of grain setting in open pollination: 94.5%
[2]
  Sterility percentage: 100.0%
  Number of grains in ear under isolator: 0.0
[3]
  Sterility percentage: 100.0%
  Number of grains in ear under isolator: 0.0
  Number of grains in ear in open pollination: 36.3
  Percentage of grain setting in open pollination: 98.6%

## CC1=CCC2C(C1)C2(C)C (stereo not shown)
Sunflower of BK-119 line
  Number of sterile plants: 100.0%
  Oil content of achenes: 51.7%
  Mass of 1,000 achenes: 56.7 g
  Percentage of setting of achenes pollination with the pollen mixture under isolator: 0.0%
  Percentage of setting in open pollination: 82.5%
  Germination rate of achenes: 100.0%
[4]
  Number of sterile plants: 100.0%
  Oil content of achenes: 53.6%
  Mass of 1,000 achenes: 84.0 g
  Percentage of setting in open pollination: 85.3%
  Percentage of setting of achenes pollination with the pollen mixture under isolator: 0.0%
  Germination rate of achenes: 100.0%
[5]
  Sterility percentage: 100.0%
  Number of grains in ear under isolator: 0.0
  Number of grains in ear in open pollination: 23.8
  Percentage of grain setting in open pollination: 94.4%
[6]
  Sterility percentage: 99.3%
  Number of grains in ear under isolator: 0.3
  Number of grains in ear in open pollination: 37.6
  Percentage of grain setting in open pollination: 82.1%
[7]
  Sterility percentage: 100.0%
  Number of grains in panicle under isolator: 0.0
[8]
  Sterility percentage: 98.1%
  Number of grains in ear under isolator: 0.6
  Number of grains in ear in open pollination: 36.7
  Percentage of grain setting in open pollination: 93.1%
[9]
  Sterility percentage: 100.0%
  Number of grains in ear under isolator: 0.0
  Number of grains in ear in open pollination: 39.7
  Percentage of setting of seeds in open pollination: 93.2%
[1]
  Percentage of sterility: 100.0%
  Number of grains in ear under isolator: 0.0
  Number of grains in ear in open pollination: 27.8
  Percentage of grain setting in open pollination: 90.0%
[2]
  Sterility percentage: 99.3%
  Number of grains in ear under isolator: 0.2
  Number of grains in ear in open pollination: 29.0
  Percentage of grain setting in open pollination: 92.9%
[3]
  Sterility percentage: 99.6%
  Number of grains in ear under isolator: 0.1
  Number of grains in ear in open pollination: 37.3
  Percentage of grain setting in open pollination: 92.8%

## CC(=O)OC(C)(C)C1CC=C(C)CC1 (stereo not shown)
[5]
  Sterility percentage: 97.8%
  Number of grains in ear under isolator: 0.4
  Number of grains in ear in open pollination: 23.0
  Percentage of grain setting in open pollination: 91.3%
[6]
  Sterility percentage: 100.0%
  Number of grains in ear under isolator: 0.0
  Number of grains in ear in open pollination: 40.9
  Percentage of grain setting in open pollination: 89.3%
[7]
  Sterility percentage: 100.0%
  Number of grains in panicle under isolator: 0.0
[7]; control 145.4
  Number of grains in panicle in open pollination: 138.9
[7]; control = 100%
  Percentage of grain setting in open pollination: 95.5%
[8]
  Sterility percentage: 99.7%
  Number of grains in ear under isolator: 0.1
  Number of grains in ear in open pollination: 35.2
  Percentage of grain setting in open pollination: 89.3%
[9]
  Sterility percentage: 100.0%
  Number of grains in ear under isolator: 0.0
  Number of grains in ear in open pollination: 38.8
  Percentage of setting of seeds in open pollination: 91.1%
[1]
  Percentage of sterility: 100.0%
  Number of grains in ear under isolator: 0.0
  Number of grains in ear in open pollination: 29.5
  Percentage of grain setting in open pollination: 95.5%
[2]
  Sterility percentage: 100.0%
  Number of grains in ear under isolator: 0.0
  Number of grains in ear in open pollination: 28.6
  Percentage of grain setting in open pollination: 91.7%
[3]
  Sterility percentage: 100.0%
  Number of grains in ear under isolator: 0.0
  Number of grains in ear in open pollination: 32.8
  Percentage of grain setting in open pollination: 81.6%

## CC1=CCC(C(C)(C)O)CC1 (stereo not shown)
Sunflower of BK-119 line
  Number of sterile plants: 100.0%
  Oil content of achenes: 49.4%
  Mass of 1,000 achenes: 55.4 g
  Percentage of setting of achenes pollination with the pollen mixture under isolator: 0.0%
  Percentage of setting in open pollination: 80.4%
  Germination rate of achenes: 100.0%
[4]
  Number of sterile plants: 100.0%
  Oil content of achenes: 53.4%
  Mass of 1,000 achenes: 82.3 g
  Percentage of setting in open pollination: 80.0%
  Percentage of setting of achenes pollination with the pollen mixture under isolator: 0.0%
  Germination rate of achenes: 100.0%
[7]
  Sterility percentage: 100.0%
  Number of grains in panicle under isolator: 0.0
[9]
  Sterility percentage: 100.0%
  Number of grains in ear under isolator: 0.0
  Number of grains in ear in open pollination: 40.1
  Percentage of setting of seeds in open pollination: 94.1%
[1]
  Percentage of sterility: 100.0%
  Number of grains in ear under isolator: 0.0
  Number of grains in ear in open pollination: 28.4
  Percentage of grain setting in open pollination: 91.9%
[2]
  Sterility percentage: 100.0%
  Number of grains in ear under isolator: 0.0
  Number of grains in ear in open pollination: 27.2
  Percentage of grain setting in open pollination: 87.2%
[3]
  Sterility percentage: 98.6%
  Number of grains in ear under isolator: 0.4
  Number of grains in ear in open pollination: 33.8
  Percentage of grain setting in open pollination: 91.8%
